# From PubChem BioAssay AID602281 (The Scripps Research Institute Molecular Screening Center, 2012)
# Protein sequences, listed by entry. Tags and fused reporters are not part of them. Lines headed by an entry give the natural chain unless they say otherwise; changes in a name come on top.
# UniProt Q00G26: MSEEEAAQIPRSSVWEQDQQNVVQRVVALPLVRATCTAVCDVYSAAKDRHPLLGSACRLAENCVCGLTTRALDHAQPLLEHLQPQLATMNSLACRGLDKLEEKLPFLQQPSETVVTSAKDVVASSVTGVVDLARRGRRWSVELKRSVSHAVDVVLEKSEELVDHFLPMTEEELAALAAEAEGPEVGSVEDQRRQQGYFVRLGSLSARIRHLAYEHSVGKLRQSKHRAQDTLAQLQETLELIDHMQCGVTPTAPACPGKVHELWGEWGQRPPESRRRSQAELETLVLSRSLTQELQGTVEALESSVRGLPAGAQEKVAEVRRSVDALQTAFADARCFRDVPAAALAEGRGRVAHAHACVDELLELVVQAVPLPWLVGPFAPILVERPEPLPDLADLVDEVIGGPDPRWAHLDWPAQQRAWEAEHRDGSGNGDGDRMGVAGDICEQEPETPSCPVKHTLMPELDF
# UniProt Q8WTS1: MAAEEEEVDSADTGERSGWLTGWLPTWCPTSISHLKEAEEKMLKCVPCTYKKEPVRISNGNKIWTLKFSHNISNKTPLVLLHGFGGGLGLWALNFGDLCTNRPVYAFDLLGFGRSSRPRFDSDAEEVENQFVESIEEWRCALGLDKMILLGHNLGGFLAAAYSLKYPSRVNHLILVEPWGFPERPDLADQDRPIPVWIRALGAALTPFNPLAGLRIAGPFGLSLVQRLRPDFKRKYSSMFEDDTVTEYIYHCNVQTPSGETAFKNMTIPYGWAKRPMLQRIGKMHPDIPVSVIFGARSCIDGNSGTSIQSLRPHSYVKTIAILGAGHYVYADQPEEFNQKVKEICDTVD
# The list shows a part of the results, in another mix than the full data. Activity calls are given as the source filed them.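 Rule for the calls: active = inhibition above the mean inhibition across every tested compound plus 3 SD (cut at about 22% in these data); inactive = the rest.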
# Target: Perilipin-5 (Homo sapiens) + 1-acylglycerol-3-phosphate O-acyltransferase ABHD5 (Homo sapiens) (UniProt Q00G26+Q8WTS1)
# Experiment: blockers of ABHD5 binding to perilipin-5 – cell lysate, split luciferase complementation, luminescence, primary screen (AID 602281);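 note: 0% = DMSO only wells and the 100% control is not disclosed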
# Conditions: Split G. princeps luciferase complementation, 4 h, at 4 µM, active compounds read high
row,Compound,inhibition
1,CN(CCCl)Cc1cc(Cl)c(NC2=NCCN2)c(Cl)c1,inactive: 0.47%
2,CCOP(=O)(Nc1ccc(C)cn1)OCC,inactive: -1.64%
3,CCOP(=O)(NC(=NC(C)c1ccccc1)NC(C)c1ccccc1)OCC (centres undefined),inactive: 4.85%
4,CCC1=CC2Cc3nc4ccc(Cl)cc4c(N)c3C(C1)C2 (centres undefined),inactive: 2.25%
5,O=P1(Nc2ccccn2)COc2ccccc2OC1,inactive: 7.05%
6,CC(C)(C)C(=O)NC(Sc1ncccn1)C(Cl)(Cl)Cl (centres undefined),inactive: -1.9%
7,Clc1n[nH]nc1-c1nn[nH][15n]1,inactive: 0.61%
8,O=P1(N(CCCl)CCCl)NCCC(C(F)(F)F)O1 (centres undefined),inactive: -0.19%
9,COc1ccccc1CNC(=O)COC(=O)C(O)(c1ccccc1)c1ccccc1,inactive: -2.97%
10,CC1(CBr)Cn2c(nc3ccccc3c2=O)S1 (centres undefined),inactive: -3.57%
11,CN(C(=O)Cc1ccc(Cl)c(Cl)c1)[C@@H]1CCCC[C@H]1N1CCCC1,inactive: -1.19%
12,CC(C)/C=N\N=C(\N)N[N+](=O)[O-],inactive: -3.17%
13,Cc1ccc(C(=O)OC2CN3CCC2CC3)cc1 (centres undefined),inactive: 0.6%
14,CC1CCC(C(C)C)C(OP(=O)(Nc2ccccn2)c2ccccc2)C1 (centres undefined),inactive: 1.35%
15,Cc1nn(-c2ccccc2)c2c1P(=O)(N1CCOCC1)N(C)C(c1ccccc1)=N2 (centres undefined),inactive: 2.2%
16,CCCC1OP(=O)(Nc2ccccc2)OCC1CC (centres undefined),inactive: 2.64%
17,O=C(/C=C/c1ccccc1)OC1CN2CCC1CC2 (centres undefined),inactive: 7.48%
18,CN(C)C1(CNC(=O)c2ccc(S(C)(=O)=O)cc2)CCCCC1,inactive: 6.02%
19,O=P1(Nc2ncccn2)COc2ccccc2OC1,inactive: 3.25%
20,Cc1ccc(S(=O)(=O)N(CCCN)CCCc2c(C)nc(N)[nH]c2=O)cc1,inactive: -1.95%
21,NS(=O)(=O)c1cccc(NC(=O)COC(=O)C(O)(c2ccccc2)c2ccccc2)c1,inactive: 3.3%
22,O=P1(Nc2ccc(Br)cn2)COc2ccccc2OC1,inactive: -1.4%

row,Compound,inhibition
1,O=[As](O)(c1cccs1)c1cccs1,inactive: 4.4%
2,Nc1cccc([As](=O)(O)c2ccccc2)c1,inactive: -2.89%
3,CS(=O)(=O)c1cc([N+](=O)[O-])c2no[n+]([O-])c2c1,inactive: -1.91%
4,O=P(Nc1nccs1)(c1ccccc1)c1nc2ccccc2s1 (centres undefined),active: 40.6%
5,O=P(Nc1nccs1)(Oc1ccccc1)Oc1ccccc1,inactive: -1.3%
6,CCOP1(=S)c2c(C)nn(CCC#N)c2N=C(c2ccccc2F)N1C (centres undefined),inactive: -6.47%
7,O=C(O)COc1ccc([As](=O)(O)O)cc1[N+](=O)[O-],inactive: 6.62%
8,Nc1ccccc1[As](=O)(O)c1ccccc1,inactive: 2.42%
9,NC(=O)Nc1ccc([As](=O)(O)O)cc1,inactive: -1.98%
10,CN(C(=O)Cc1ccc(Cl)c(Cl)c1)[C@H]1CC[C@@]2(CCCO2)C[C@@H]1N1CCCC1,inactive: -1.84%
11,CN(C)C(=O)c1cc([N+](=O)[O-])cc2c1-c1c(cc([N+](=O)[O-])cc1[N+](=O)[O-])C2=O,inactive: 3.46%
12,O=[N+]([O-])c1ccc2c(c1)nnn2O,inactive: 0.91%
13,CCOP1(=S)c2c(C)nn(CCC#N)c2N=C(c2ccc(F)cc2)N1C (centres undefined),inactive: 6.58%
14,CN(C(=O)Cc1ccccc1)[C@@H]1CC[C@]2(CCCO2)C[C@H]1N1CCCC1,inactive: 4.55%
15,N#CCCN(C(=O)COC(=O)C(O)(c1ccccc1)c1ccccc1)c1ccc(F)cc1,inactive: -10.3%
16,CS(=O)(=O)c1ccc(Cl)c(NC(=O)COC(=O)C(O)(c2ccccc2)c2ccccc2)c1,inactive: -1.18%
17,COc1cc(C(=O)NCC2(N3CCOCC3)CCCCC2)cc(Cl)c1OC(C)C,inactive: 1.15%
18,O=[As](O)(O)c1cccnc1,inactive: 7.3%
19,O=C(OC1CN2CCC1CC2)c1ccc(Cl)cc1 (centres undefined),inactive: 3.57%
20,O=[As](O)(c1cccc(O)c1)c1cccc(O)c1,inactive: 3.07%
21,Cc1cccc(OCC(=O)OC2CN3CCC2CC3)c1 (centres undefined),inactive: 3.33%
22,CCCOP(=S)(Nc1nc(N)cc(=O)[nH]1)OCCC,inactive: -15.1%

row,Compound,inhibition
1,Cc1ccc(NCCc2c([N+](=O)[O-])cc([N+](=O)[O-])cc2[N+](=O)[O-])cc1,inactive: 8.33%
2,Nc1cccc2c([As](=O)(O)O)cccc12,inactive: -2.3%
3,CCOP(=O)(Nc1cccc2ccccc12)OCC,inactive: -4.03%
4,COc1cc(C2NCCC3(OCCO3)C2(C)C)cc(OC)c1OC (centres undefined),inactive: 6.49%
5,Cc1cc(=O)[nH]c(N[N+](=O)[O-])n1,inactive: 3.64%
6,O=C(OC1CN2CCC1CC2)C12CC3CC(CC(C3)C1)C2 (centres undefined),inactive: -0.44%
7,Cc1c2c(nc3ccccc13)SC(C(Cl)Cl)C2 (centres undefined),inactive: -4.38%
8,COc1cc(I)ccc1[As](=O)(O)O,inactive: 1.54%
9,COc1ccc2nc(NP(=O)(c3ccccc3)c3ccccc3)sc2c1,inactive: -0.47%
10,O=P1(N(CCCl)CCCl)OCCCN1CCCl (centres undefined),inactive: 2.44%
11,O=P1(N(CCCl)CCCl)Nc2ccccc2N1,inactive: -0.01%
12,COc1ccc(N/C(=N/P(=O)(N2CCOCC2)N2CCOCC2)N2CCOCC2)cc1,inactive: -2.39%
13,O=[N+]([O-])c1cc(Oc2ccc([N+](=O)[O-])cc2C(F)(F)F)cc([N+](=O)[O-])c1,inactive: 3.6%
14,COc1cc(C(=O)NCC2(N3CCOCC3)CCCCC2)ccc1OCC(C)C,inactive: 1.34%
15,O=[N+]([O-])c1ccc(-c2cc([N+](=O)[O-])c(O)c([N+](=O)[O-])c2)cc1,inactive: -2.98%
16,C[As](=O)(O)c1cccc(C(=O)O)c1,inactive: -1.41%
17,O=[As](O)(c1ccc(O)cc1)c1ccccc1O,inactive: 2.25%
18,Cc1ccc2nc3c(c(C)c2c1)CC(C(Cl)Cl)S3 (centres undefined),inactive: -4.17%
19,Cc1ccc(OP(=O)(Nc2ccc([N+](=O)[O-])cn2)Oc2ccc(C)cc2)cc1,inactive: -0.45%
20,[N-]=[N+]=NC1CCCCC1NC(=O)c1cc([N+](=O)[O-])cc([N+](=O)[O-])c1 (centres undefined),inactive: -1.25%
